Experimental data from publication PMC13065467, “Assembly and phosphoregulatory mechanisms of the budding yeast outer kinetochore KMN complex” (The Journal of Cell Biology, 2026).

Target: T1, Knl1c:Mis12c^Mtw1c complex K^HB-RWDM^Dsn1Δ257 (Knl1^Spc105 residues 1–444 and Dsn1 residues 1–257 deleted) (S. cerevisiae, UniProt P53148 445-917; Q04431 1-385; P40568 258-576; P39731 1-289; P47149 1-201; …)
T1 construct: Knl1^Spc105_HB-RWD: Knl1^Spc105, S. cerevisiae S288c, residues 445-917; ZWINT^Kre28, S. cerevisiae S288c; no truncation stated; Mis12^Mtw1, S. cerevisiae S288c; wild-type, no truncation stated; Nnf1, S. cerevisiae S288c; Nsl1, S. cerevisiae S288c; source: High-5 insect cells (two baculoviruses), purified (Strep-Tactin, SEC); copies: + + + + +
Test: ITC

PHYIQRTRERKKEIGSQRGRRLEMLASGSAW (N-terminal acetylation; C-terminal amidation) [Dsn1^228–254,S240E,S250E peptide] gave a Kd of 6 µM.
